Literature values in patent US7244713B2, “Nucleoside compounds for treating viral infections” (Genelabs Technologies, Inc., priority 2003, dated 2007).

Settings: in vivo; cited from earlier work

SMILES: NC(=O)c1ncn([C@@H]2O[C@H](CO)[C@@H](O)[C@H]2O)n1 [Ribavirin, 1-β-D-ribofuranosyl-1H-1,2,-4-triazole-3-carboxamide]
- teratogenicity / embryotoxicity: teratogenic and embryotoxic
